Reference: patent US20240228585A1

Tests used:
trypsin [1] = test: BLI (FIG. 25)
trypsin [2] = test: BLI, trypsin on sensor; run 6, Conc. 2473 nM [cont.]
trypsin [3] = test: BLI, trypsin on sensor; run 5, Conc. 3299 nM [cont.]
trypsin [4] = test: BLI, trypsin on sensor; run 3, Conc. 24730 nM [cont.]
trypsin [5] = test: BLI, trypsin on sensor; run 9, Conc. 247.3 nM [cont.]
trypsin [6] = test: BLI, trypsin on sensor; run 3, Conc. 32980 nM [cont.]
trypsin [7] = test: BLI, trypsin on sensor; run 4, Conc. 32.99 nM [cont.]
trypsin [8] = test: BLI, trypsin on sensor; run 6, Conc. 329.9 nM [cont.]
trypsin [9] = test: BLI, trypsin on sensor; run 1, Conc. 164900 nM [cont.]
trypsin [10] = test: BLI, trypsin on sensor; run 12, Conc. 329800 nM [cont.]
trypsin [11] = test: BLI (BLItz), biotinylated trypsin on streptavidin sensor; same value in rows 3, 6, 9 and 12; ka Error 1.6e3 [cont.]
trypsin [12] = test: BLI (BLItz), biotinylated trypsin on streptavidin sensor; same value in rows 3, 6, 9 and 12; kd Error 9.452e-5 [cont.]
trypsin [13] = test: BLI (BLItz), trypsin on sensor; pH not printed on the sheet; Global fitting (1:1); same value in rows 1, 3, 4, 5 and 6; ka Error 1.191e3 [cont.]
trypsin [14] = test: BLI (BLItz), trypsin on sensor; pH not printed on the sheet; Global fitting (1:1); same value in rows 1, 3, 4, 5 and 6; kd Error 8.708e-4 [cont.]
trypsin [15] = test: BLI (BLItz), biotinylated trypsin on streptavidin sensor, analyte diluted in PBS pH 7.4; same value in rows 3, 6, 9 and 12 (shared fit) [cont.]
trypsin [16] = test: BLI (BLItz), biotinylated trypsin on streptavidin sensor; pH not printed on the sheet (paragraph 377 sets this run against pH 7.4); Global fitting (1:1); same value in rows 1, 3, 4, 5 and 6 [cont.]
trypsin [17] = test: BLI, trypsin on sensor; run 4, Conc. 24910 nM [cont.]
trypsin [18] = test: BLI, trypsin on sensor; run 10, Conc. 249.1 nM [cont.]
trypsin [19] = test: BLI, trypsin on sensor; run 11, Conc. 37760 nM [cont.]
trypsin [20] = test: BLI, trypsin on sensor (target taken from paragraph 377); run 2, Conc. 3776 nM [cont.]
trypsin [21] = test: BLI, trypsin on sensor (target taken from paragraph 377); run 1, Conc. 37760 nM [cont.]
trypsin [22] = test: BLI, trypsin on sensor (target taken from paragraph 377); run 3, Conc. 377.6 nM [cont.]
trypsin [23] = test: BLI, trypsin on sensor (target taken from paragraph 377); run 4, Conc. 37.76 nM [cont.]
trypsin [24] = test: BLI, trypsin on sensor (target taken from paragraph 377); run 5, Conc. 3.776 nM [cont.]
trypsin [25] = test: BLI (BLItz), biotinylated trypsin on streptavidin sensor; same value in rows 4, 10 and 11 [cont.]
trypsin [26] = test: BLI (BLItz), trypsin on sensor (target taken from paragraph 377); Global fitting (1:1); same value in rows 1 to 5 [cont.]
trypsin [27] = test: BLI (BLItz), biotinylated trypsin on streptavidin sensor; same value in rows 4, 10 and 11; ka Error 2.11e2 [cont.]
trypsin [28] = test: BLI (BLItz), trypsin on sensor (target taken from paragraph 377); Global fitting (1:1); same value in rows 1 to 5; ka Error 1.768e3 [cont.]
trypsin [29] = test: BLI (BLItz), biotinylated trypsin on streptavidin sensor, analyte diluted in PBS; same value in rows 4, 10 and 11 (shared fit) [cont.]
trypsin [30] = test: BLI (BLItz), sensor loaded with biotinylated trypsin; the sheet does not name the target, it is taken from paragraph 377; Global fitting (1:1); same value in rows 1 to 5 [cont.]

Fc-BPTI(Ala16His) (Fc fusion)
fold change in KD against the pH 7.4 section (trypsin [1]): 10 fold | R equilibrium (trypsin [2]): 1.67 | R equilibrium (trypsin [3]): 0.754 | R equilibrium (trypsin [4]): 2.08 | R equilibrium (trypsin [5]): 1.99 | R equilibrium (trypsin [6]): 0.942 | R equilibrium (trypsin [7]): 0.00216 | R equilibrium (trypsin [8]): 0.88 | R equilibrium (trypsin [9]): 1.46 | R equilibrium (trypsin [10]): 2.6 | kon (trypsin [11]): 39300 M⁻¹ s⁻¹ | koff (trypsin [12]): 0.00434 s⁻¹ | kon (trypsin [13]): 27800 M⁻¹ s⁻¹ | koff (trypsin [14]): 0.0315 s⁻¹ | Kd (trypsin [15]): 110 nM | Kd (trypsin [16]): 1130 nM

Fc-BPTI (Fc fusion)
R equilibrium (trypsin [17]): 1.97 | R equilibrium (trypsin [18]): 5.52 | R equilibrium (trypsin [19]): 2.91 | R equilibrium (trypsin [20]): 1.84 | R equilibrium (trypsin [21]): 1.77 | R equilibrium (trypsin [22]): 1.67 | R equilibrium (trypsin [23]): 2.57 | R equilibrium (trypsin [24]): 6.79 | koff (trypsin [25]): < 1e-07 s⁻¹ | koff (trypsin [26]): < 1e-07 s⁻¹ | kon (trypsin [27]): 10200 M⁻¹ s⁻¹ | kon (trypsin [28]): 72700 M⁻¹ s⁻¹ | Kd (trypsin [29]): < 0.001 nM | Kd (trypsin [30]): < 0.001 nM
